# Measurements from PubChem BioAssay AID588621 (Sanford-Burnham Center for Chemical Genomics, 2011).
# Chains of the proteins cited; added tags and fusions are not shown. Lines headed by an entry give the natural chain unless they say otherwise; changes in a name come on top.
# UniProt P54829: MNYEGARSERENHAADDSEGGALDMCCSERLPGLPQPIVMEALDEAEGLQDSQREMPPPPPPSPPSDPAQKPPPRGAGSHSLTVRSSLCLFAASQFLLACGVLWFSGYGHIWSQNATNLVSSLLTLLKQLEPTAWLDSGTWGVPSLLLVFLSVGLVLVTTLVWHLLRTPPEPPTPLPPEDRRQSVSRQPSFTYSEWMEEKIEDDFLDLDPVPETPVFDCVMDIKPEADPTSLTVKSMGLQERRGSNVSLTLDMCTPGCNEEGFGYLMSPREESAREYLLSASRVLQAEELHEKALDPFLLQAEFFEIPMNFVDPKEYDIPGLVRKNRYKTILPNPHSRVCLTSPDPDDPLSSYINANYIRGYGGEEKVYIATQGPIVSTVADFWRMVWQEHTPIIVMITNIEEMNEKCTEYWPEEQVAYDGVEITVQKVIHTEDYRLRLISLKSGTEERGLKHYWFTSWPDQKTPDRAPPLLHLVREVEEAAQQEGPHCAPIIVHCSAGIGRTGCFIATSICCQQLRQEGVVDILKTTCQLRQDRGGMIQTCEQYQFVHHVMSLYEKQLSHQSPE
# This is a selection; strong and weak results do not stand in their true shares. Activity calls are given as the source filed them.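 The calls were made as follows: active = inhibition at 20 µM, scaled per plate between control wells, above about 37% (limit read from the data); inactive = the rest.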
# Target: Tyrosine-protein phosphatase non-receptor type 5 (Homo sapiens) (UniProt P54829)
# Experiment: STEP phosphatase inhibitors, primary screen, biochemical, fluorescence intensity, uHTS (AID 588621);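 also: 0% = DMSO with enzyme and substrate and 100% = substrate only without enzyme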
# Details: recombinant STEP, OMFP fluorogenic substrate, at 20 µM, active compounds read high
# Outline: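 material = STEP tyrosine phosphatase | reagent = fluorogenic phosphatase substrate OMFP at 25 µM final | doses = single compound dose of 20 µM, 1% DMSO final | schedule = 20 min reaction, room temperature, in the dark | measured by = fluorescence, 480/540 nm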
row,Compound,inhibition
1,Nc1cccc2ccc([As](=O)(O)O)cc12,inactive: 17.7%
2,CCN(N=Nc1nonc1N)c1nonc1N,inactive: 0%
3,Cc1cc(SC(NC(=O)c2ccc(F)cc2)C(Cl)(Cl)Cl)ncn1 (configuration not stated),inactive: -1.1%
4,CCOP(=O)(Nc1ccccc1)OCC,inactive: 0.5%
5,Cc1ccc(NP(=O)(Oc2ccccc2F)Oc2ccccc2F)nc1,inactive: -0.9%
6,CN(C(=O)Cc1ccc(Cl)c(Cl)c1)[C@H]1CCCC[C@@H]1N1CCCC1,inactive: 1.5%
7,O=P(Nc1nc2ccc(Cl)cc2s1)(c1ccccc1)c1ccccc1,inactive: 3%
8,CN(C)P(=O)(N(C)C)n1c(Nc2ccccc2)nnc1-c1ccccc1,inactive: -2.6%
9,CC(=O)Nc1ccc([As](=O)(O)O)cc1,inactive: 5.8%
10,O=C(O)c1ccccc1[As](=O)(O)O,inactive: 3.8%
11,CCCC1OP(N)(=O)OCC1CC (configuration not stated),inactive: -2.8%
12,O=[N+]([O-])C1C(O)C(O)C([N+](=O)[O-])C(O)C1O (configuration not stated),inactive: 8%
13,Oc1ccccc1CNc1ccccn1,inactive: -1.7%
14,O=C(NC(Sc1ccncn1)C(Cl)(Cl)Cl)c1ccccc1 (configuration not stated),inactive: 1.1%
15,Nc1cc(N)c2nonc2c1[N+](=O)[O-],inactive: 17.4%
16,CC(C)CC(=O)NC(Sc1ccc(Cl)cc1)C(Cl)(Cl)Cl (configuration not stated),inactive: -3.1%
17,CN1CCCC(OC(=O)C(c2ccccc2)c2ccccc2)C1 (configuration not stated),inactive: 0.8%
18,Clc1ccc(Cl)c(NC2=NCC(CBr)S2)c1 (configuration not stated),inactive: -0.2%
19,COc1ccccc1OP(=O)(Nc1ccc(C)cn1)Oc1ccccc1OC,inactive: 0.2%
20,Cc1ccc(OP(=O)(Nc2nccs2)Oc2ccc(C)cc2)cc1,inactive: -2.1%
21,CN(C(=O)Cc1ccc(Cl)c(Cl)c1)[C@H]1CCCC[C@H]1N1CCCC1,inactive: 0.7%
22,Cc1ccc(N/C(=N/P(=O)(N2CCOCC2)N2CCOCC2)N2CCOCC2)cc1,inactive: -2%
23,NC(=O)c1cc([N+](=O)[O-])cc([N+](=O)[O-])c1N,inactive: -3.5%
24,CC1CCN(C(=O)Oc2c(Cl)cc(Cl)c3cccnc23)CC1,inactive: 0.2%
25,c1cc(-c2nn[nH]n2)ccc1-c1nn[nH]n1,inactive: -0.3%
26,CC(C)c1nc(Nc2ccccc2)n(P(=O)(N(C)C)N(C)C)n1,inactive: -4.1%

row,Compound,inhibition
1,CC(C)=N/N=C(\N)N[N+](=O)[O-],inactive: 2.9%
2,CN(C)C(=O)OCCc1n(C)cc[n+]1C,inactive: -0.3%
3,CCN(/C(=N/P(=O)(N1CCOCC1)N1CCOCC1)N1CCOCC1)c1ccc(OC)cc1,inactive: -0.3%
4,Nc1ccc([As](=O)(O)c2ccc(N)cc2)cc1,inactive: 2.5%
5,C[N+]1=C2C=CC=CC=C2SC12C([N+](=O)[O-])=CC([N+](=O)[O-])=C[C-]2[N+](=O)[O-] (configuration not stated),inactive: 24.1%
6,Cc1ccc(NP(=O)(Oc2ccccc2)Oc2ccccc2)nc1,inactive: 1.5%
7,CCc1nc2c(n1)c1c(non1O)c1c2no[n+]1[O-],inactive: 3%
8,O=[N+]([O-])c1cc([N+](=O)[O-])c(CCNc2ccccc2)c([N+](=O)[O-])c1,inactive: 0.8%
9,O=[N+]([O-])c1cccc2n[nH]nc12,inactive: 6.9%
10,CC(=O)N1C2C3N(C(C)=O)C1C1N(C(C)=O)C(C(N1C(C)=O)N3C(C)=O)N2C(C)=O,inactive: -3%
11,COc1ccc(C2=NCC(CBr)S2)cc1 (configuration not stated),inactive: -4%
12,O=C(O)CNc1ccc([As](=O)(O)O)cc1,inactive: 0.3%
13,COC(=O)C1(C)COP(=O)(Nc2ccccc2)OC1 (configuration not stated),inactive: 0.6%
14,O=[N+]([O-])c1cccc(NC2=NCC(CBr)S2)c1 (configuration not stated),inactive: -1.7%
15,O=[N+]([O-])c1ncn(CCn2ncnc2[N+](=O)[O-])n1,inactive: -0.3%
16,CC(C)(C)C(=O)NC(Sc1ccncn1)C(Cl)(Cl)Cl (configuration not stated),inactive: 1.3%
17,O=C(Nc1cc([As](=O)(O)O)ccc1O)c1ccccc1,inactive: 2.6%
18,O=P1(N(CCCl)CCCl)OCCCS1 (configuration not stated),inactive: 0.9%
19,O=C(OC1CN2CCC1CC2)c1cccc(Cl)c1 (configuration not stated),inactive: 1.9%
20,C(Cc1nn[nH]n1)Cc1nn[nH]n1,inactive: -1.3%
21,Nc1ccc([As](=O)(O)c2ccc([N+](=O)[O-])cc2)cc1,inactive: 0.2%
22,O=[As](O)(c1ccccc1)c1ccc(O)cc1,inactive: -0.3%
23,O=[N+]([O-])c1ccc(O)c(/C=N/Nc2ccc([N+](=O)[O-])cc2[N+](=O)[O-])c1,inactive: 8.9%
24,O=[N+]([O-])c1ncn(CCn2cnc([N+](=O)[O-])n2)n1,inactive: -1.4%
25,CC(=O)NC(SC(=S)N(C)C)C(Cl)(Cl)Cl (configuration not stated),inactive: 1.6%
26,O=P(Nc1nc2ccccc2s1)(c1ccccc1)c1ccccc1,inactive: 5.3%

row,Compound,inhibition
1,C[C@H]1OP(=O)(Oc2ccccc2)[C@H](O)[C@H](O)[C@H]1N=[N+]=[N-] (some centres not stated),inactive: -2.2%
2,O=P(Nc1ccccn1)(c1ccc(Br)cc1)c1ccc(Br)cc1,inactive: -1.9%
3,CN(C)C1(CNC(=O)c2ccc(Cl)c(S(N)(=O)=O)c2)CCCCC1,inactive: -5.1%
4,COc1ccc(N)c([N+](=O)[O-])c1[N+](=O)[O-],inactive: 2.7%
5,Nc1ccc(CCCCOc2ccccc2)cc1,inactive: 1.7%
6,c1nnnn1CCn1cnnn1,inactive: 3.2%
7,CC(C)C(=O)NC(Sc1ccccc1)C(Cl)(Cl)Cl (configuration not stated),inactive: -3.4%
8,O=P(Nc1nccs1)(c1ccccc1)c1ccccc1,inactive: 5%
9,CC(=O)Nc1ccc([As](=O)(O)O)c(O)c1,inactive: 3%
10,CC(=O)Nc1ccc(Oc2c([N+](=O)[O-])cc([N+](=O)[O-])cc2[N+](=O)[O-])cc1,inactive: 1.3%
11,Cc1ccccc1CN(C)C(=O)COC(=O)C(O)(c1ccccc1)c1ccccc1,inactive: -2.1%
12,C[C@H]1OP(=O)(Oc2ccccc2)C[C@@H]2O[C@@H]21 (some centres not stated),inactive: -1.2%
13,C[C@@H]1C=CCP(=O)(Oc2ccccc2)O1 (some centres not stated),inactive: -0.4%
14,CC(=O)c1ccc(N2CC2c2ccncc2)cc1 (configuration not stated),inactive: -0.4%
15,N#C/C(=C\c1ccc(N(CCBr)CCBr)cc1)C(N)=O,inactive: -0.4%
16,COC(=O)C1(C)COP(=O)(NCc2ccccc2)OC1 (configuration not stated),inactive: 1.2%
17,CC(C)(C)C(=O)NC(Sc1ccccc1)C(Cl)(Cl)Cl (configuration not stated),inactive: -2.6%
18,CCc1cc(O)c([N+](=O)[O-])c(C)c1[N+](=O)[O-],inactive: -1.9%
19,O=P1(Nc2nc3ccc(Cl)cc3s2)COc2ccccc2O1 (configuration not stated),inactive: 1.2%
20,CCOc1ccc(C2=NCC(CBr)S2)cc1 (configuration not stated),inactive: 1.3%
21,CC(NC(=O)COC(=O)C(O)(c1ccccc1)c1ccccc1)c1ccccc1 (configuration not stated),inactive: -1.2%
22,Cc1ccccc1OP(=O)(Nc1ccccn1)Oc1ccccc1C,inactive: -1.2%
23,O=c1c2cc([N+](=O)[O-])ccc2[nH]c2c([N+](=O)[O-])cc([N+](=O)[O-])cc12,inactive: 2.8%
24,CN(C)C(=O)Oc1noc2ccccc12,inactive: -0.9%
25,O=C(OC1CN2CCC1CC2)c1ccccc1 (configuration not stated),inactive: -0.6%
26,CCC(=O)N1C2C3N(C(=O)CC)C1C1N(C(=O)CC)C(C(N1C(=O)CC)N3C(=O)CC)N2C(=O)CC,inactive: -0.3%

row,Compound,inhibition
1,COC(=O)c1cc2c(s1)N=C(c1ccccc1)N(C)P2(=O)N1CCOCC1 (configuration not stated),inactive: -3.3%
2,Cc1ccc(OP(=O)(Nc2ccccn2)Oc2ccc(C)cc2)cc1,inactive: 6.5%
3,CC(=O)NC(SC(=S)N(CC(C)C)CC(C)C)C(Cl)(Cl)Cl (configuration not stated),inactive: 0.1%
4,O=P1(N(CCCl)CCCl)OCCC2CCCCN21 (configuration not stated),inactive: -2.2%
5,c1ccc(-c2nn[nH]n2)c(-c2nn[nH]n2)c1,inactive: 1.7%
6,Cc1ccc(NP(=O)(Oc2cccc(C)c2)Oc2cccc(C)c2)nc1,inactive: -3.4%
7,CCNC(=S)/N=C(\N)N[N+](=O)[O-],inactive: 3.6%
8,O=C(NC1CCS(=O)(=O)C1)NP(=S)(Oc1ccccc1)Oc1ccccc1 (configuration not stated),inactive: -0.8%
9,N#CCCN(C(=O)COC(=O)C(O)(c1ccccc1)c1ccccc1)c1ccc(F)cc1,inactive: -2.4%
10,CN(C(=O)Cc1ccccc1)[C@@H]1CC[C@]2(CCCO2)C[C@H]1N1CCCC1,inactive: 0.9%
11,CCOP1(=S)c2c(C)nn(CCC#N)c2N=C(c2ccc(F)cc2)N1C (configuration not stated),inactive: 1%
12,O=[N+]([O-])c1ccc2c(c1)nnn2O,inactive: -0.6%
13,CN(C)C(=O)c1cc([N+](=O)[O-])cc2c1-c1c(cc([N+](=O)[O-])cc1[N+](=O)[O-])C2=O,inactive: -1%
14,CN(C(=O)Cc1ccc(Cl)c(Cl)c1)[C@H]1CC[C@@]2(CCCO2)C[C@@H]1N1CCCC1,inactive: 2.2%
15,NC(=O)Nc1ccc([As](=O)(O)O)cc1,inactive: 1%
16,Nc1ccccc1[As](=O)(O)c1ccccc1,inactive: -1.9%
17,O=C(O)COc1ccc([As](=O)(O)O)cc1[N+](=O)[O-],inactive: -1.4%
18,CCOP1(=S)c2c(C)nn(CCC#N)c2N=C(c2ccccc2F)N1C (configuration not stated),inactive: -0.1%
19,O=P(Nc1nccs1)(Oc1ccccc1)Oc1ccccc1,inactive: -2.2%
20,O=P(Nc1nccs1)(c1ccccc1)c1nc2ccccc2s1 (configuration not stated),inactive: -3.1%
21,CS(=O)(=O)c1cc([N+](=O)[O-])c2no[n+]([O-])c2c1,inactive: 4.9%
22,COc1cc(C2NCCC3(OCCO3)C2(C)C)cc(OC)c1OC (configuration not stated),inactive: 0.9%
23,CCOP(=O)(Nc1cccc2ccccc12)OCC,inactive: 0.7%
24,Nc1cccc2c([As](=O)(O)O)cccc12,inactive: 4.1%
